Sequences of proteins named here, by UniProt entry; tags and fusion partners are left off.
UniProt O43614, whole entry: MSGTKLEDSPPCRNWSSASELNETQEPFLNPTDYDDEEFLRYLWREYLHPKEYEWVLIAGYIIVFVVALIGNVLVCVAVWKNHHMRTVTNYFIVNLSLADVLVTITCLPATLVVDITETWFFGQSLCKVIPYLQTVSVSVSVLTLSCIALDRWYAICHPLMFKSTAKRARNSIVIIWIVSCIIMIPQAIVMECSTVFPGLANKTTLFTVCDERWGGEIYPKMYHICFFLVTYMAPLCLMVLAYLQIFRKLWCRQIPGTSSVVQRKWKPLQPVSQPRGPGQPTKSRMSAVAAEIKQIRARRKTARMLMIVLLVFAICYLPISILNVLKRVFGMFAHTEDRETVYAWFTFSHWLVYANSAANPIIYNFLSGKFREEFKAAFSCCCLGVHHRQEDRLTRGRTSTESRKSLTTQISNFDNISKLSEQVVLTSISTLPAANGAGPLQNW

In patent US9440982B2 (Eolas Therapeutics, Inc., priority 2012, dated 2016):

Molecular target: T1, OX2 (Homo sapiens, UniProt O43614)
T1 construct: expressed in transfected cells; host or cells: CHO (CHO-OX2, kept under selection antibiotic)
Assay: Orexin receptor cell-based functional assay, [Ca2+]i by FLIPR, CHO-OX2 cells
Conditions: CHO-OX2 cells, [Ca2+]i by FLIPR, antagonist dose-range 0.1 nM-10 μM, EC90 of OXA; read-out: OX2

SMILES	IC50 [µM]
Cc1ccc(-n2nccn2)c(C(=O)N2CCC[C@@H](C)[C@H]2CNc2nc3cc(F)ccc3o2)c1 [Example A129, ((2S,3R)-2-(((5-Fluorobenzo[d]oxazol-2-yl)amino)methyl)-3-methylpiperidin-1-yl)(5-methyl-2-(2H-1,2,3-triazol-2-yl)phenyl)methanone]	0.1
Cc1ccc(-n2ccc(C)n2)c(C(=O)N2CCC[C@@H](C)[C@H]2CNc2ccc(C(F)(F)F)nn2)c1 [Example A130, ((2S,3R)-3-Methyl-2-(((6-(trifluoromethyl)pyridazin-3-yl)amino)methyl)piperidin-1-yl)(5-methyl-2-(3-methyl-1H-pyrazol-1-yl)phenyl)methanone]	> 5
Cc1ccc(-n2ccc(C)n2)c(C(=O)N2CCC[C@@H](C)[C@H]2CNc2ncc(C#N)cn2)c1 [Example A131, 2-((((2S,3R)-3-Methyl-1-(5-methyl-2-(3-methyl-1H-pyrazol-1-yl)benzoyl)piperidin-2-yl)methyl)amino)pyrimidine-5-carbonitrile]	> 5
Cc1ccc(-n2ccc(C)n2)c(C(=O)N2CCC[C@@H](C)[C@H]2CNc2nnc(C(F)(F)F)s2)c1 [Example A132, ((2S,3R)-3-Methyl-2-(((5-(trifluoromethyl)-1,3,4-thiadiazol-2-yl)amino)methyl)piperidin-1-yl)(5-methyl-2-(3-methyl-1H-pyrazol-1-yl)phenyl)methanone]	> 5
Cc1ccc(-n2ccc(C)n2)c(C(=O)N2CCC[C@@H](C)[C@H]2CNc2ccc(C#N)cn2)c1 [Example A133, 6-((((2S,3R)-3-Methyl-1-(5-methyl-2-(3-methyl-1H-pyrazol-1-yl)benzoyl)piperidin-2-yl)methyl)amino)nicotinonitrile]	> 5
Cc1ccc(-n2nccn2)c(C(=O)N2CCC[C@@H](C)[C@H]2CNc2ncc(C#N)cn2)c1 [Example A134, 2-((((2S,3R)-3-Methyl-1-(5-methyl-2-(2H-1,2,3-triazol-2-yl)benzoyl)piperidin-2-yl)methyl)amino)pyrimidine-5-carbonitrile]	> 5
Cc1ccc(-n2ncc(C)n2)c(C(=O)N2CCC[C@@H](C)[C@H]2CNc2nnc(C(F)(F)F)s2)c1 [Example A135, ((2S,3R)-3-Methyl-2-(((5-(trifluoromethyl)-1,3,4-thiadiazol-2-yl)amino)methyl)piperidin-1-yl)(5-methyl-2-(4-methyl-2H-1,2,3-triazol-2-yl)phenyl)methanone]	> 5
Cc1ccc(-n2nccn2)c(C(=O)N2CCC[C@@H](C)[C@H]2CNc2ccc(C3CC3)cn2)c1 [Example A136, ((2S,3R)-2-(((5-Cyclopropylpyridin-2-yl)amino)methyl)-3-methylpiperidin-1-yl)(5-methyl-2-(2H-1,2,3-triazol-2-yl)phenyl)methanone]	0.59
Cc1ccc(-c2ncccn2)c(C(=O)N2CCC[C@@H](C)[C@H]2CNc2ccc(C(F)(F)F)nn2)c1 [Example A137, ((2S,3R)-3-Methyl-2-(((6-(trifluoromethyl)pyridazin-3-yl)amino)methyl)piperidin-1-yl)(5-methyl-2-(pyrimidin-2-yl)phenyl)methanone]	> 5
Cc1ccc(-c2ncccn2)c(C(=O)N2CCC[C@@H](C)[C@H]2CNc2ccc(Cl)cn2)c1 [Example A138, ((2S,3R)-2-(((5-Chloropyridin-2-yl)amino)methyl)-3-methylpiperidin-1-yl)(5-methyl-2-(pyrimidin-2-yl)phenyl)methanone]	3.4
Cc1ccc(-c2ncccn2)c(C(=O)N2CCC[C@@H](C)[C@H]2CNc2ccc(C#N)cn2)c1 [Example A139, 6-((((2S,3R)-3-Methyl-1-(5-methyl-2-(pyrimidin-2-yl)benzoyl)piperidin-2-yl)methyl)amino)nicotinonitrile]	> 5
Cc1ccc(-n2nccn2)c(C(=O)N2CCC[C@@H](C)[C@H]2CNc2ccc(C3(C#N)CC3)cn2)c1 [Example A140, 1-(6-((((2S,3R)-3-Methyl-1-(5-methyl-2-(2H-1,2,3-triazol-2-yl)benzoyl)piperidin-2-yl)methyl)amino)pyridin-3-yl)cyclopropanecarbonitrile]	0.79
Cc1ccc(-n2ncc(C)n2)c(C(=O)N2CCC[C@@H](C)[C@H]2CNc2nc3cc(F)ccc3o2)c1 [Example A141, ((2S,3R)-2-(((5-Fluorobenzo[d]oxazol-2-yl)amino)methyl)-3-methylpiperidin-1-yl)(5-methyl-2-(4-methyl-2H-1,2,3-triazol-2-yl)phenyl)methanone]	0.086
Cc1ccc(-n2ncc(C)n2)c(C(=O)N2CCC[C@@H](C)[C@H]2CNc2ccc(F)cn2)c1 [Example A142, ((2S,3R)-2-(((5-Fluoropyridin-2-yl)amino)methyl)-3-methylpiperidin-1-yl)(5-methyl-2-(4-methyl-2H-1,2,3-triazol-2-yl)phenyl)methanone]	> 5
Cc1ccc(NC[C@@H]2[C@H](C)CCCN2C(=O)c2cc(C)ccc2-c2ncccn2)nc1 [Example A143, ((2S,3R)-3-Methyl-2-(((5-methylpyridin-2-yl)amino)methyl)piperidin-1-yl)(5-methyl-2-(pyrimidin-2-yl)phenyl)methanone]	> 5
Cc1ccc(-n2nccn2)c(C(=O)N2CCC[C@@H](C)[C@H]2CNc2ncc(Cl)cn2)c1 [Example A147, ((2S,3R)-2-(((5-Chloropyrimidin-2-yl)amino)methyl)-3-methylpiperidin-1-yl)(5-methyl-2-(2H-1,2,3-triazol-2-yl)phenyl)methanone]	> 5
Cc1ccc(-n2nccn2)c(C(=O)N2CCC[C@@H](C)[C@H]2CNc2ncc(C#N)cc2F)c1 [Example A148, 5-Fluoro-6-((((2S,3R)-3-methyl-1-(5-methyl-2-(2H-1,2,3-triazol-2-yl)benzoyl)piperidin-2-yl)methyl)amino)nicotinonitrile]	> 5
Cc1ccc(-n2nccn2)c(C(=O)N2CCC[C@@H](C)[C@H]2CNc2ncc(C(F)(F)F)cn2)c1 [Example A149, ((2S,3R)-3-Methyl-2-(((5-(trifluoromethyl)pyrimidin-2-yl)amino)methyl)piperidin-1-yl)(5-methyl-2-(2H-1,2,3-triazol-2-yl)phenyl)methanone]	> 5
Cc1ccc(-c2ccccn2)c(C(=O)N2CCC[C@@H](C)[C@H]2CNc2nnc(C(F)(F)F)s2)c1 [Example A151, ((2S,3R)-3-Methyl-2-(((5-(trifluoromethyl)-1,3,4-thiadiazol-2-yl)amino)methyl)piperidin-1-yl)(5-methyl-2-(pyridin-2-yl)phenyl)methanone]	> 5
Cc1ccc(-c2ccccn2)c(C(=O)N2CCC[C@@H](C)[C@H]2CNc2ncc(C#N)cn2)c1 [Example A153, 2-((((2S,3R)-3-Methyl-1-(5-methyl-2-(pyridin-2-yl)benzoyl)piperidin-2-yl)methyl)amino)pyrimidine-5-carbonitrile]	> 5
Cc1ccc(-n2cccn2)c(C(=O)N2CCC[C@@H](C)[C@H]2CNc2ccc(C#N)cn2)c1 [Example A155, 6-((((2S,3R)-3-Methyl-1-(5-methyl-2-(1H-pyrazol-1-yl)benzoyl)piperidin-2-yl)methyl)amino)nicotinonitrile]	> 5
Cc1ccc(-n2cccn2)c(C(=O)N2CCC[C@@H](C)[C@H]2CNc2ccc(C(F)(F)F)nn2)c1 [Example A157, ((2S,3R)-3-mMethyl-2-(((6-(trifluoromethyl)pyridazin-3-yl)amino)methyl)piperidin-1-yl)(5-methyl-2-(1H-pyrazol-1-yl)phenyl)methanone]	> 5
Cc1ccc(-c2ccc(C(F)(F)F)cn2)c(C(=O)N2CCC[C@@H](C)[C@H]2CNc2ccc(Cl)cn2)c1 [Example A158, ((2S,3R)-2-(((5-Chloropyridin-2-yl)amino)methyl)-3-methylpiperidin-1-yl)(5-methyl-2-(5-(trifluoromethyl)pyridin-2-yl)phenyl)methanone]	> 5
Cc1ccc(-c2ccc(F)cn2)c(C(=O)N2CCC[C@@H](C)[C@H]2CNc2ccc(Cl)cn2)c1 [Example A159, ((2S,3R)-2-(((5-Chloropyridin-2-yl)amino)methyl)-3-methylpiperidin-1-yl)(2-(5-fluoropyridin-2-yl)-5-methylphenyl)methanone]	> 5
C[C@@H]1CCCN(C(=O)c2cc(Cl)ccc2-n2nccn2)[C@@H]1CNc1ncc(C(F)(F)F)cn1 [Example A160, (5-Chloro-2-(2H-1,2,3-triazol-2-yl)phenyl)((2S,3R)-3-methyl-2-(((5-(trifluoromethyl)pyrimidin-2-yl)amino)methyl)piperidin-1-yl)methanone]	1.3
C[C@@H]1CCCN(C(=O)c2cc(Cl)ccc2-n2nccn2)[C@@H]1CNc1ccc(Cl)cn1 [Example A161]	> 5
C[C@@H]1CCCN(C(=O)c2cc(Cl)ccc2-n2nccn2)[C@@H]1CNc1ccc(C(F)(F)F)nn1 [Example A162, (5-Chloro-2-(2H-1,2,3-triazol-2-yl)phenyl)((2S,3R)-3-methyl-2-(((6-(trifluoromethyl)pyridazin-3-yl)amino)methyl)piperidin-1-yl)methanone]	> 5
Cc1ccc(-n2nccn2)c(C(=O)N2CCC[C@@H](C)[C@H]2CNc2nccc(C(F)(F)F)n2)c1 [Example A163, ((2S,3R)-3-Methyl-2-(((4-(trifluoromethyl)pyrimidin-2-yl)amino)methyl)piperidin-1-yl)(5-methyl-2-(2H-1,2,3-triazol-2-yl)phenyl)methanone]	1.2
Cc1ccc(-n2cccn2)c(C(=O)N2CCC[C@@H](C)[C@H]2CNc2ccc(C(F)(F)F)nn2)n1 [Example A164, ((2S,3R)-3-Methyl-2-(((6-(trifluoromethyl)pyridazin-3-yl)amino)methyl)piperidin-1-yl)(6-methyl-3-(1H-pyrazol-1-yl)pyridin-2-yl)methanone]	> 5
Cc1ccc(-c2ccccn2)c(C(=O)N2CCC[C@@H](C)[C@H]2CNc2ccc(C(F)(F)F)nn2)n1 [Example A165, ((2S,3R)-3-methyl-2-(((6-(trifluoromethyl)pyridazin-3-yl)amino)methyl)piperidin-1-yl)(6′-methyl-[2,3′-bipyridin]-2′-yl)methanone]	> 5
